Literature values in patent US20110301169A1, “Therapies for Treating Cancer Using Combinations of COX-2 Inhibitors and Antimetabolites” (priority 2007, published 2011).
Where two headings read alike, the source gives them in different places.

System: HER2-positive breast cancer cell lines (BT474 and SKBR3)
Settings: following trastuzumab exposure, cited from earlier work

trastuzumab: recombinant DNA-derived humanized monoclonal antibody (IgG1 kappa) that selectively binds the extracellular domain of HER2
G0/G1 arrest (resistant cells): 68% | cells in S-phase (resistant cells): 14% | G0/G1 arrest (sensitive cells): 84%
